# Assay results reported in ChEMBL document CHEMBL5537137, “Design, synthesis and biological evaluation of biaryl amide derivatives against SARS-CoV-2 with dual-target mechanism” (Eur J Med Chem, 2024).
# Assays:
# [1] = target: T1, Replicase polyprotein 1ab (Severe acute respiratory syndrome coronavirus 2, UniProt P0DTD1)
# Human coronavirus OC43 = assay: microbe, parasite or virus in culture; conditions: Betacoronavirus 1, VR-1558, NCI-H460, 72 h
# [2] = Cytotoxicity against human NCI-H460 cells incubated for 72 hrs by CCK-8 assay
# in vitro [3] = conditions: human, Huh-7 cells
# [4] = target: T1, Replicase polyprotein 1ab; remark: listed apart in the source
# A549 = assay: cells; conditions: Homo sapiens, A549, 72 h
# in vitro [5] = conditions: human, Huh7.5 cells
smiles,measurement,setting,value
CN(C)C1CN(Cc2ccc(NC(=O)c3ccc(OCCC(F)(F)F)c([N+](=O)[O-])c3)cc2C(F)(F)F)C1,IC50,[1],38.3 µM
same,EC50,Human coronavirus OC43,2.13 µM
same,CC50 at 72 h,[2],67 µM
same,CC50 at 72 h,in vitro [3],> 50 µM
same,Kd,[4],11.8 µM
same,CC50,A549,> 100 µM
same,CC50 at 72 h,in vitro [5],> 50 µM
